From patent publication US6825217B2, “Carbinols for the treatment of neuropathic dysfunction” (Endo Pharmaceuticals, Inc., priority 2001, dated 2004)

Chains of the proteins cited; added tags and fusions are not shown. Residues count along the entry.
UniProt Q63380, 1-617: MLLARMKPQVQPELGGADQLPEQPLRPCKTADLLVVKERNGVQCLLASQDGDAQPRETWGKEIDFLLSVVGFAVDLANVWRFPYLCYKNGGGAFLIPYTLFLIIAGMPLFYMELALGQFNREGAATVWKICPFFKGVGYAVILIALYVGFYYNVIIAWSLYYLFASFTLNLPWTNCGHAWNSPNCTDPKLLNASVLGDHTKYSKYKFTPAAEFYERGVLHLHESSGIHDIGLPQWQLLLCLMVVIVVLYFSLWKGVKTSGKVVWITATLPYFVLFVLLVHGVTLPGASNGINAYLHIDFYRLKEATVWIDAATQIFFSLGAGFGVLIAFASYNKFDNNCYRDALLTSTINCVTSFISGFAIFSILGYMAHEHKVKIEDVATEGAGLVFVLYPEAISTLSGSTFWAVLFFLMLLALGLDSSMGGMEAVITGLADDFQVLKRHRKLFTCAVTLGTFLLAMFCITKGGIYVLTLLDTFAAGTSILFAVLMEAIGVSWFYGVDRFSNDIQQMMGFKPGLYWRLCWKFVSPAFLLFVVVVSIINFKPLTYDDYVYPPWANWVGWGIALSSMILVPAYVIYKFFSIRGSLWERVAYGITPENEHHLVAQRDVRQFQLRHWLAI

Molecular target: T1, rat synaptosomal NE Reuptake (Rattus norvegicus, UniProt Q63380)
T1 construct: rat synaptosomal 5-HT and NE Reuptake; from tissue; host or cells: rat synaptosomes (rat brain preparations)
Assay: Norepinephrine reuptake assay (rat synaptosomal NE uptake)
Assay type: biochemical
Settings: read-out: NE uptake inhibition IC50

**Q.** With `COc1ccc(C(CN(C)C)C2(O)CCCCC2)cc1` (stereo not shown) [Venlafaxine, reference compound] as the molecule, how does the IC50 read?
**A.** Its IC50 is 640 nM.
